In US12551567B2, “Bicyclic peptide ligands specific for PD-L1” (BicycleRD Limited, priority 2018, dated 2026) one finds Kd and Ki data, which are given here for 14 substances.

By UniProt entry, the sequences of proteins in these tests, tags left out. Residues count along the entry.
UniProt Q9NZQ7, 19-290: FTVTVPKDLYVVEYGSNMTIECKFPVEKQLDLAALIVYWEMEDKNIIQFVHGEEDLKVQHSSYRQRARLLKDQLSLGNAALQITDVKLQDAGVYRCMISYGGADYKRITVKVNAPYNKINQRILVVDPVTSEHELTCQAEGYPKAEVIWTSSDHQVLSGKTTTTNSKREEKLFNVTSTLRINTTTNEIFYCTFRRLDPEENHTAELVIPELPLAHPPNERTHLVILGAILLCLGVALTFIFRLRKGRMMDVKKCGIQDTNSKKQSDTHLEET

Assay [1] concerns the target T1, human PD-L1 (Homo sapiens, UniProt Q9NZQ7). In words: PD-L1 Direct Binding Assay (fluorescence polarisation). The following applies: 25° C., TBMB scaffold. As for the experimental part:
Affinity of the peptides of the invention for human PD-L1 (Ki) was determined using a fluorescence polarisation assay, in accordance with the methods disclosed in WO2016/067035. Peptides of the invention with a fluorescent tag (either fluorescein, SIGMA or Alexa Fluor488™, Fisher Scientific) were diluted to 2.5 nM in PBS with 0.01% tween 20 or 50 mM HEPES with 100 mM NaCl and 0.01% tween pH 7.4 (both referred to as assay buffer). This was combined with a titration of protein in the same assay buffer as the peptide to give 1 nM peptide in a total volume of 25 μL in a black walled and bottomed low bind low volume 384 well plates, typically 5 μL assay buffer, 10 μL protein then 10 μL fluorescent peptide. One in two serial dilutions were used to give 12 different concentrations with top concentrations ranging from 500 nM for known high affinity binders to 10 μM for low affinity binders and selectivity assays. Measurements were conducted on a BMG PHERAstar FS equipped with an “FP 485 520 520” optic module which excites at 485 nm and detects parallel and perpendicular emission at 520 nm. The PHERAstar FS was set at 25° C. with 200 flashes per well and a positioning delay of 0.1 second, with each well measured at 5 to 10 minute intervals for 60 minutes. The gain used for analysis was determined for each tracer at the end of the 60 minutes where there was no protein in the well. Data was analysed using Systat Sigmaplot version 12.0. mP values were fit to a user defined quadratic equation to generate a Kd value: f=ymin+(ymax−ymin)/Lig*((x+Lig+Kd)/2−sqrt((((x+Lig+Kd)/2)^2)−(Lig*x))). “Lig” was a defined value of the concentration of tracer used.

For assay [2], the target named is T1, human PD-L1. In words: PD-L1 Competition Binding Assay (fluorescence polarisation, tracer BCY585). The following applies: fluorescence polarisation competition with BCY585, TBMB scaffold. As for the experimental part: Peptides were diluted to an appropriate concentration in assay buffer as described in the direct binding assay with a maximum of 5% DMSO, then serially diluted 1 in 2. Five μL of diluted peptide was added to the plate followed by 10 μL of human PD-L1, then 10 μL fluorescent peptide added. Measurements were conducted as for the direct binding assay, however the gain was determined prior to the first measurement. Data analysis was in Systat Sigmaplot version 12.0 where the mP values were fit to a user defined cubic equation to generate a Ki value: f=ymin+(ymax−ymin)/Lig*((Lig*((2*((Klig+Kcomp+Lig+Comp−Prot*c)^2−3*(Kcomp*(Lig−Prot*c)+Klig*(Comp−Prot*c)+Klig*Kcomp))^0.5*COS(ARCCOS((−2*(Klig+Kcomp+Lig+Comp−Prot*c)^3+9*(Klig+Kcomp+Lig+Comp−Prot*c)*(Kcomp*(Lig−Prot*c)+Klig*(Comp−Prot*c)+Klig*Kcomp)−27*(−1*Klig*Kcomp*Prot*c))/(2*((((Klig+Kcomp+Lig+Comp−Prot*c)^2−3*(Kcomp*(Lig−Prot*c)+Klig*(Comp−Prot*c)+Klig*Kcomp))^3)^0.5)))/3))−(Klig+Kcomp+Lig+Comp−Prot*c)))/((3*Klig)+((2*((Klig+Kcomp+Lig+Comp−Prot*c)^2−3*(Kcomp*(Lig−Prot*c)+Klig*(Comp−Prot*c)+Kig*Kcomp))^0.5*COS(ARCCOS((−2*(Klig+Kcomp+Lig+Comp−Prot*c)^3+9*(Klig+Kcomp+Lig+Comp−Prot*c)*(Kcomp*(Lig−Prot*c)+Klig*(Comp−Prot*c)+Klig*Kcomp)−27*(−1*Klig*Kcomp*Prot*c))/(2*((((Klig+Kcomp+Lig+Comp−Prot*c)^2−3*(Kcomp*(Lig−Prot*c)+Klig*(Comp−Prot*c)+Klig*Kcomp))^3)^0.5)))/3))−(Klig+Kcomp+Lig+Comp−Prot*c)))).
“Lig”, “KLig” and “Prot” were all defined values relating to: fluorescent peptide concentration, the Kd of the fluorescent peptide and PD-L1 concentration respectively.

Assay [3] has as its target T1, human PD-L1. In words: PD-L1 SPR Binding Assay (Biacore). Also noted: purchased Sino Biologicals or R&D systems. The following applies: Biacore 3000, biotinylated PD-L1 captured on streptavidin, 25° C. On the procedure: Biacore experiments were performed to determine ka (M^−1s^−1), kd (s^−1), KD (nM) values of monomeric peptides binding to human PD-L1 protein. […] The protein was desalted to remove uncoupled biotin using spin columns into PBS. For analysis of binding, a Biacore 3000 instrument was used utilizing a CM5 sensor chip (GE Healthcare). Streptavidin was immobilized on the chip using standard amine-coupling chemistry at 25° C. with HBS-N (10 mM HEPES, 0.15 M NaCl, pH 7.4) as the running buffer. The carboxymethyl dextran surface was activated with a 12 min injection of a 1:1 ratio of 0.4 M 1-ethyl-3-(3-dimethylaminopropyl) carbodiimide hydrochloride (EDC)/0.1 M N-hydroxy succinimide (NHS) at a flow rate of 10 μl/min. For capture of streptavidin, protein was diluted to 0.1 mg/ml in 10 mM sodium acetate (pH 4.5) and captured by injecting 70 μl onto the activated chip surface. Residual activated groups were blocked with a 7 min injection of 1 M ethanolamine (pH 8.5). Biotinylated PD-L1 stock was diluted 1:100 in HBS-N and captured on one flow cell at 5 μl/min to a level of 1000-1300 RU. Buffer was changed to PBS/0.05% Tween 20 and a dilution series of the peptides was prepared in this buffer with a final DMSO concentration of 0.5%. The top concentrations were 200 nM or 500 nM with 6 2-fold dilutions. The SPR analysis was run at 25° C. at a flow rate of Flow rate 50 μl/min with 60 seconds association and 400 seconds disassociation. Data were corrected for DMSO excluded volume effects. All data were double-referenced for blank injections and reference surface using standard processing procedures and data processing and kinetic fitting were performed using Scrubber software, version 2.0c (Biologic Software). Data were fitted using mass transport model allowing for mass transport effects where appropriate.

ACPDNNSICHLWCA [BCY514]: the equilibrium dissociation constant (Kd) in assay [1] (read-out: Kd) worked out at 0.165 µM. In assay [2], the affinity corresponds to a Ki of 0.165 ± 0.159 µM. As to ACPDNNSICHLWCA[Sar]6[KFI] [BCY550], in assay [1] (read-out: Kd), the equilibrium dissociation constant (Kd) amounted to 0.323 ± 0.0225 µM. For ACPDPHGICHLWCA [BCY515], the results for the Kd in assay [3] and in assay [1] (read-out: Kd) were 0.212 µM and 0.0513 µM, respectively. This substance also returned a Ki in assay [2] of 0.0513 ± 0.063 µM.

Take ACPDPHNICHLWCA [BCY516]: the results for the Kd in assay [3] and in assay [1] (read-out: Kd) were 0.171 µM and 0.0488 µM, respectively. In assay [2], this substance gave an inhibition constant Ki of 0.0488 ± 0.0544 µM. With ACPFPEEWCPRCA [BCY508], the dissociation constant Kd in assay [1] (read-out: Kd) amounted to 0.0751 µM. The substance further yielded a Ki in assay [2] of 0.0751 ± 0.0535 µM. Take ACPFPPHWCPRQCA[Sar]6[KFI] [BCY551]: in assay [1] (read-out: Kd), the dissociation constant (Kd) is 0.596 µM. For the substance ACPFPVEWCPRCA [BCY509], the equilibrium dissociation constant (Kd) is 0.0241 µM in assay [3] and 0.00788 µM in assay [1] (read-out: Kd). In assay [2], the affinity, expressed as Ki, was 0.00653 ± 0.00768 µM.

As for ACPFPVEWCPRCA[Sar]6[KFI] [BCY546], the Kd in assay [1] (read-out: Kd) is 0.0487 ± 0.00842 µM. Regarding ACPFPVEWCSRCA [BCY507], in assay [1] (read-out: Kd), the Kd worked out at 0.157 µM. This substance also gave a Ki in assay [2] of 0.157 ± 0.0242 µM.

With ACPFPVEWCSRCA[Sar]6[KFI] [BCY543], the Kd in assay [1] (read-out: Kd) worked out at 0.779 ± 0.0255 µM.

On to [FI]G[Sar]5ACPDNNSICHLWCA [BCY583], for which the dissociation constant Kd in assay [1] (read-out: Kd) stood at 0.199 ± 0.0694 µM.

Take [FI]G[Sar]5ACPDPHGICHLWCA [BCY584]: in assay [1] (read-out: Kd), the Kd came to 0.0885 ± 0.0216 µM. Consider [FI][B-Ala][Sar]5ACPFPEEWCPRCA [BCY544], for which the Kd in assay [1] was 0.37 µM.

Regarding [FI][B-Ala][Sar]5ACPFPVEWCPRCA [BCY545], the Kd in assay [1] was determined as 0.0657 ± 0.0235 µM.
